In ChEMBL document CHEMBL1130381, “Synthesis and evaluation of trimetoquinol derivatives: novel thromboxane A2/prostaglandin H2 antagonists with diminished beta-adrenergic agonist activity” (J Med Chem, 1997):

Species on record: Homo sapiens
Test: Potency ratio of human platelet aggregation
Format: functional
O=[N+]([O-])c1cc(CC2NCCc3cc(O)c(O)cc32)ccc1O (stereo not drawn) was tested, and the Potency ratio was 0.91.
Nc1ccc(CC2NCCc3cc(O)c(O)cc32)cc1 (stereo not drawn) showed a Potency ratio of 0.00891.
O=[N+]([O-])c1ccc(CC2NCCc3cc(O)c(O)cc32)cc1 (stereo not drawn) showed a Potency ratio of 0.0257.
